This passage reports EC50 and IC50 results from ChEMBL document CHEMBL2021829, “Design, Synthesis and Biological Evaluation of a Series of Novel Axl Kinase Inhibitors” (ACS Med Chem Lett, 2011).

The structures appear in SMILES notation.

Assay [1] has as its target T1, Tyrosine-protein kinase receptor UFO (Homo sapiens, UniProt P30530).
T1 sequence (P30530 whole entry): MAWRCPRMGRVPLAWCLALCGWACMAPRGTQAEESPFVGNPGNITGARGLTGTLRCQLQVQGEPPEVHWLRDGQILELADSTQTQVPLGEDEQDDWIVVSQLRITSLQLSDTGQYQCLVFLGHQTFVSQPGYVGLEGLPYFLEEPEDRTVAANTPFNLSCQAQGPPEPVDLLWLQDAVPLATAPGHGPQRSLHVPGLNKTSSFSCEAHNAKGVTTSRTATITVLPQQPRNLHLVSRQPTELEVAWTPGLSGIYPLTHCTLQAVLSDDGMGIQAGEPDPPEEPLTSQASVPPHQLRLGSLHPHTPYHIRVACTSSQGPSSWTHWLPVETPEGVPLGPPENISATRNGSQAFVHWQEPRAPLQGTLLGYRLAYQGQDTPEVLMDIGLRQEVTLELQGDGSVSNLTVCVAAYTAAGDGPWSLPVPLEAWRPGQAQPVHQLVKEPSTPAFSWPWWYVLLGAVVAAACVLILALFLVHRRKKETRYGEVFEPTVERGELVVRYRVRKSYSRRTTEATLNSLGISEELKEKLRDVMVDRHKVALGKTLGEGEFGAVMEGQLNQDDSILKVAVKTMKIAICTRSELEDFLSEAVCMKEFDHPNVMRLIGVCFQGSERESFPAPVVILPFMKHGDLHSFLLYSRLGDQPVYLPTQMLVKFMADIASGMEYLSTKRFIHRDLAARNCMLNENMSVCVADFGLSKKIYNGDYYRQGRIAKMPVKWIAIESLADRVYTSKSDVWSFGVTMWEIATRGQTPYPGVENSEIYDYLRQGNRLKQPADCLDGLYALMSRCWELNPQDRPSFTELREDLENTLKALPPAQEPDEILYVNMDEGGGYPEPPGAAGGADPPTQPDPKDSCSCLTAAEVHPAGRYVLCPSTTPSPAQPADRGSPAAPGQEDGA
The experiment in a line: Inhibition of AXL in human PSN1 cells assessed as decrease in GAS6-induced phospho-AXL level after 2 hrs by EILSA. It is filed as cell-based.

Assay [2] addresses T1, Tyrosine-protein kinase receptor UFO. The experiment in a line: Inhibition of AXL-mediated AKT Ser473 phosphorylation in human PSN1 cells assessed as decrease in GAS6-induced phospho-AKT level after 2 hrs by ELISA. It is filed as cell-based. (In general: ELISA stands for enzyme-linked immunosorbent assay.)
Assay [3] shares this target.
The next assay relates to PSN1. Put plainly: Cytotoxicity against human PSN1 cells after 96 hrs by ATP-lite luminescence assay. It is filed as functional, cell-based. Conditions: PSN1, 96 h.

By EC50 is commonly meant the concentration needed to bring the measured effect to its halfway point. By IC50 is commonly meant the concentration that gives 50% inhibition. Low values mean greater potency, high ones weaker potency. As for `CN1CCN(Cc2ccc(Nc3ncc(Cl)c(Nc4ccccc4S(=O)(=O)N(C)C)n3)cc2)CC1` [DUBERMATINIB], the EC50 in assay [1] amounted to 222 nM; in assay [2], 305 nM. This molecule returned an IC50 in assay [3] of 27 nM.

In turn, `CN1CCC(N(C)c2ccc(Nc3ncc(Cl)c(Nc4ccccc4S(=O)(=O)N(C)C)n3)cc2)CC1` displayed a half-maximal inhibitory concentration (IC50) with PSN1 of 410 nM.
